Amino acid sequences for entries named in this document (tags omitted). Chains listed by the source or under a name are the forms on record and can include a tag or linker. Residues count along the entry.
UniProt Q9NRM0, 51-540 with tags or gaps limits assumed: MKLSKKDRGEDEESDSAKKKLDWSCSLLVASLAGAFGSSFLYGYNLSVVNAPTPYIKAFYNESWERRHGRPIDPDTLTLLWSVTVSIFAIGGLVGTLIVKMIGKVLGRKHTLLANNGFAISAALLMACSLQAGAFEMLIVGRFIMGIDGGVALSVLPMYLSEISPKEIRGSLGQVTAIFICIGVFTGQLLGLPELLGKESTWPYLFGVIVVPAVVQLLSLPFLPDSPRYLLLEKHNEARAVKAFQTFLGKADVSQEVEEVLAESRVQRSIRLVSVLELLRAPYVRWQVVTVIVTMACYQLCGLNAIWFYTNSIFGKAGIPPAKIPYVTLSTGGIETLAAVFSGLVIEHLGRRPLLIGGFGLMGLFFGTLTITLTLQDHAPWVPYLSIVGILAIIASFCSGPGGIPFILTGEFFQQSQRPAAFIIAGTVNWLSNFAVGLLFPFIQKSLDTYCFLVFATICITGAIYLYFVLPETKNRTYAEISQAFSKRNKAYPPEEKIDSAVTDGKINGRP

According to patent US10752596B2, “Nitrogen-containing heteroaryl compound and pharmaceutical use thereof” (JAPAN TOBACCO INC., priority 2017, dated 2020):

target: human GLUT9 (Homo sapiens (Human), UniProt Q9NRM0); test: Evaluation of human GLUT9 inhibitory activity ([14C] uric acid uptake in human GLUT9 expressing HEK293T cells transduced with Uricase/Hyper); details: read-out: humans GLUT9 inhibitory activity (IC50 value (μM)), final 300 μM uric acid, 6 min, human GLUT9 stably expressing HEK293T cells

Row | SMILES | IC50
1 | COCCCc1cnc(-c2ccc(OC)cc2)c(-c2ccc(CCC(=O)O)cc2)c1 | 0.0918 µM
2 | CCCCc1cnc(-c2ccc(CC)cc2)c(-c2ccc(C(=O)O)cc2)n1 | 0.141 µM
3 | CCCCc1cnc(-c2ccc(OC)c(C)c2)c(-c2ccc(C(=O)O)cc2)n1 | 0.15 µM
4 | CCCCc1cnc(-c2ccc(C)cc2)c(-c2ccc(C(=O)O)cc2)n1 | 0.341 µM
